## Curated experimental data: vapor pressure values

From the experimental data distributed with OPERA 2.9.

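The numbers are reported measurements, compiled and curated for the OPERA QSAR suite. The files give a single number for a compound and property, which may rest on several reports. How each value was measured is not recorded, so precision varies. Where a salt, mixture or single isomer is drawn, the source does not say that exactly this form was tested. Unmarked limits or estimates from the upstream databases cannot be ruled out.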

Vapor pressures (log10 mmHg) refer to near room temperature, 15 to 30 °C; higher is more volatile.
Cells with "n/a" have no entry in this list.
"via" names the databases from which the curators took the value.

| SMILES | name | log VP (log10 mmHg) | via |
|---|---|---|---|
| C=C1[C@H]2CC[C@@H]3[C@H]2C(C)(C)CCC[C@]13C | Longifolene | -1.401 | eChemPortal |
| CC(=O)N1CCOCC1 | N-Acetylmorpholine | -1.782 | eChemPortal |
| O=C(O)CCCc1c[nH]c2ccccc12 | Indole-3-butyric acid | -6.801 | OCHEM |
| CCC(F)(F)C(F)(F)C(F)(F)C(F)(F)C(F)(F)C(F)(F)F | 1-(Perfluorohexyl)ethane | 1.461 | eChemPortal |
| O=C(NCc1ncc(C(F)(F)F)cc1Cl)c1c(Cl)cccc1Cl | Fluopicolide | -8.433 | OCHEM, PubChem |
| C=Cc1ncnc(Cl)c1F | 4-Chloro-6-ethenyl-5-fluoropyrimidine | 0.003 | eChemPortal |
| O=CC(=O)O | Glyoxylic acid | 1.088 | eChemPortal |
| C=CC(=O)NCC(OC)OC | N-(2,2-Dimethoxyethyl)-2-propenamide | -2.952 | eChemPortal |
| C[Si](C)(Cl)CCCC#N | Butanenitrile, 4-(chlorodimethylsilyl)- | 0.815 | eChemPortal |
| CS(=O)(=O)c1ccc(C(=O)C2=C(Sc3ccccc3)C3CCC(C3)C2=O)c(Cl)c1 (stereo unspecified) | Benzobicyclon | -6.377 | OCHEM |
| CC(C)=CCC/C(C)=C/CC/C(C)=C/C=O | (E,E)-Farnesal | -2.759 | OCHEM |
| CC(C)(C=NCC1(C)CC(N=CC(C)(C)CN2CCOCC2)CC(C)(C)C1)CN1CCOCC1 (stereo unspecified) | n/a | -4.245 | eChemPortal |
| Cc1cscn1 | 4-Methylthiazole | 0.934 | OCHEM |
| CCCCCCCCCCCC(=O)N(CCCC)CCCC | N,N-Dibutyldodecanamide | -6.62 | eChemPortal |
| COc1ccc(NCCO)cc1N.O=S(=O)(O)O | n/a | -8.664 | eChemPortal |
| CN1CCCN(C)C1=O | 2(1H)-Pyrimidinone, tetrahydro-1,3-dimethyl- | -1.824 | eChemPortal |
| N=c1[nH]c2c(s1)CC(N)CC2 (stereo unspecified) | 2-Imino-2,3,4,5,6,7-hexahydro-1,3-benzothiazol-6-amine | -7.552 | eChemPortal |
| Cc1ccc(S(=O)(=O)N=C=O)cc1 | p-Toluenesulphonyl isocyanate | -3.727 | eChemPortal |
| CCCCCCCCCCCCCCCC(=O)O[C@@H]1C[C@@H](C(=O)O)N(C(=O)CCCCCCCCCCCCCCC)C1 | n/a | -7.472 | eChemPortal |
| CCCOc1ccc([C@H]2CC[C@H]([C@H]3CC[C@H](CCC)CC3)CC2)c(F)c1F | n/a | -7.643 | eChemPortal |
| O=Cc1cc(O)c(O)c([N+](=O)[O-])c1 | 3,4-Dihydroxy-5-nitrobenzaldehyde | -5.763 | eChemPortal |
| CCCCCCCCCCCC(=O)N(C)CC(=O)OC(C)C | Isopropyl lauroyl sarcosinate | -5.979 | eChemPortal |
| CCCCCCCCCCCCCCCCCc1ncc[nH]1 | 1H-Imidazole, 2-heptadecyl- | -4.011 | eChemPortal |
| COC(C(F)(F)F)C(F)(F)F | 2-Methoxy-2H-perfluoropropane | 2.432 | ICF, eChemPortal |
| Oc1cc(F)c(F)c(F)c1 | 3,4,5-Trifluorophenol | 0.058 | eChemPortal |
| O=C(O)[C@H](O)c1ccccc1Cl | (R)-(-)-2-Chloromandelic acid | -6.581 | eChemPortal |
| CC(O)CC(C)(C)c1ccccc1 (stereo unspecified) | Benzenepropanol, .alpha.,.gamma.,.gamma.-trimethyl- | -1.178 | eChemPortal |
| CC(=O)OC(C)(C)C1CC=C(C)CC1 (stereo unspecified) | alpha-Terpinyl acetate | -1.367 | OFMPub, eChemPortal |
| C=C(C)C(=O)OCCCCCCCC | Octyl methacrylate | -1.524 | eChemPortal |
| Cl.N/N=C(\O)C(N)CO (stereo partly drawn) | n/a | -4.546 | eChemPortal |
| FC(F)C(F)(F)COC(F)(F)C(F)(F)C(F)(F)F | n/a | 1.843 | ICF |
| CC(C)c1ccc(Cl)cc1Br | 2-Bromo-4-chloro-1-(1-methylethyl)benzene | -1.394 | eChemPortal |
| Cc1ccc(S(=O)(=O)OCCc2cccs2)cc1 | 2-(2-Thienyl)ethyl toluene-p-sulphonate | -6.339 | eChemPortal |
| Clc1ccc(Cl)c(-c2c(Cl)cccc2Cl)c1Cl | 2,2',3,6,6'-Pentachlorobiphenyl | -3.924 | OCHEM |
| Clc1cc(Cl)c(-c2c(Cl)cccc2Cl)cc1Cl | 2,2',4,5,6'-Pentachlorobiphenyl | -4.305 | OCHEM |
| OC(c1ccccc1)c1nc2ccccc2[nH]1 (stereo unspecified) | 2-Hydroxybenzylbenzimidazole | -4.62 | eChemPortal |
| CCCCCC[Si](OC)(OC)OC | Hexyltrimethoxysilane | 0.701 | eChemPortal |
| Cc1ccccc1OCC1CO1 (stereo unspecified) | o-Cresyl glycidyl ether | -2.312 | eChemPortal |
| O=C([O-])CCC(=O)NCCCCC(NC(=O)CCC(=O)[O-])C(=O)O.[Ca+2] (stereo unspecified) | N2,N6-Bis(3-carboxy-1-oxopropyl)-lysine calcium salt (1:1) | -4.882 | eChemPortal |
| O=COCc1ccccc1 | Formic acid, phenylmethyl ester | 0.16 | eChemPortal |
| COC1CCCCCCCCCCC1 | Cyclododecane, methoxy- | -1.306 | eChemPortal |
| CC1(CO)CC1CC1CC2CC2(C)C1(C)C (stereo unspecified) | n/a | -1.648 | eChemPortal |
| COc1cc(Cc2cnc(N)nc2N)cc(OC)c1OC | Trimethoprim | -8.007 | OCHEM |
| COC(OC)N(C)C | Methanamine, 1,1-dimethoxy-N,N-dimethyl- | 1.472 | eChemPortal |
| CC1(C)C(=O)N(CO)C(=O)N1CO | 1,3-Dimethylol-5,5-dimethylhydantoin | -7.046 | PubChem, eChemPortal |
| FC(F)C(F)(F)C(F)(F)C(F)(F)C(F)(F)C(F)(F)F | 1H-Perfluorohexane | 2.099 | eChemPortal |
| O=c1[nH]c2ccccc2c(=O)n1CCO | 3-(2-Hydroxyethyl)-1H,3H-quinazoline-2,4-dione | -9.907 | eChemPortal |
| CO[Si](C)(C)CCCNCCN | N-(3-(Methoxydimethylsilyl)propyl)ethylenediamine | -1.648 | eChemPortal |

Excerpt, the final 8 entries:

| SMILES | name | log VP (log10 mmHg) | via |
|---|---|---|---|
| COC1CCCCCCCCCCC1 | Cyclododecane, methoxy- | -1.306 | eChemPortal |
| CC1(CO)CC1CC1CC2CC2(C)C1(C)C (stereo unspecified) | n/a | -1.648 | eChemPortal |
| COc1cc(Cc2cnc(N)nc2N)cc(OC)c1OC | Trimethoprim | -8.007 | OCHEM |
| COC(OC)N(C)C | Methanamine, 1,1-dimethoxy-N,N-dimethyl- | 1.472 | eChemPortal |
| CC1(C)C(=O)N(CO)C(=O)N1CO | 1,3-Dimethylol-5,5-dimethylhydantoin | -7.046 | PubChem, eChemPortal |
| FC(F)C(F)(F)C(F)(F)C(F)(F)C(F)(F)C(F)(F)F | 1H-Perfluorohexane | 2.099 | eChemPortal |
| O=c1[nH]c2ccccc2c(=O)n1CCO | 3-(2-Hydroxyethyl)-1H,3H-quinazoline-2,4-dione | -9.907 | eChemPortal |
| CO[Si](C)(C)CCCNCCN | N-(3-(Methoxydimethylsilyl)propyl)ethylenediamine | -1.648 | eChemPortal |